Experiments:
[1] = system: cultured hippocampal neurons; assay: F2P (fluorescein-dC-puromycin) reporter of endogenous protein synthesis in cultured hippocampal neurons; type: cell-based, rat; conditions: SKF in the presence of F2P, 15 minutes; n=14
Experimental: Dissociated hippocampal neurons were prepared and maintained as previously described. Briefly, hippocampi from postnatal day 2 Sprague-Dawley rat pups were enzymatically and mechanically dissociated and plated into poly-lysine coated glass-bottom petri dishes (Mattek). Neurons were maintained for 14-21 days at 37° C. in growth medium (Neurobasal A supplemented with B27 and Glutamax-1, Invitrogen).
All images were acquired with an Olympus IX-70 confocal laser scanning microscope running Fluoview software (Olympus America, Inc). GFP, Alexa 488, and F2P were excited with the 488 nm line of an argon ion laser, and emitted light was collected between 510 and 550 nm. Alexa 568 was excited with the 568 nm line of a krypton ion laser, and emitted light was collected above 600 nm. In experiments where two channels were acquired simultaneously, settings were chosen to ensure no signal bleed-through between channels. For between-dish comparisons on a given day, all images were acquired at the same settings, without knowledge of the experimental condition during image acquisition. […] To facilitate the analysis of fluorescence signal as a function of distance from the soma, dendrites were linearized and extracted from the full-frame image using a modified version of the Straighten plugin for ImageJ. […]

dopamine D1/D5 receptor = assay: GFP protein synthesis reporter imaging in cultured hippocampal neurons; type: cell-based, rat

Oc1cc2c(cc1O)C(c1ccccc1)CNCC2 (stereo not drawn) [SKF-38393]
mean percent increase in F2P signal relative to control [1]: 91.3 ± 11.2%
protein synthesis (GFP reporter signal) relative to control neurons (dopamine D1/D5 receptor; SKF 100 μM for 15 min bath application, soma and dendrites): significantly enhanced protein synthesis
time-lapse GFP signal in dendrites (dopamine D1/D5 receptor; brief (15 min) exposure, 60 minute imaging): increased the GFP signal in dendrites within 60 minutes
